The assay can be described thus: Compound was tested for the inhibition of 5-lipoxygenase (5-Lpo) in guinea pig.

Our source for the IC50 values is BindingDB's records for doi:10.1021/jm00111a038 (Ici Pharmaceuticals Group, 1991).

What is called IC50 is the concentration at which inhibition is half-maximal.

On to `COC(c1cccc(OCc2ccc3ccccc3c2)c1)c1nccs1` (stereo unspecified), for which half-maximal inhibition (IC50) was put at 12 µM.
